Experimental data reported in patent US20260137795A1 (IMMUNOME, published 2026).

Key:
Hu/Cy/Rh ROR1 - His = target: T1, Hu/Cy/Rh ROR1 - His (human/cynomolgus/rhesus, UniProt Q01973, in part); assay: SPR, purified Hu/Cy/Rh ROR1-His
T1 construct: Purified His-tagged protein; also called HUMAN/CYNO/RHESUS ROR-1; not shown: His tag

[1] = target: T2, human ROR-1 endogenously expressed on JeKo-1 and MDA-MB-468 cells (human, UniProt Q01973); assay: cell-based or functional assay
[2] = target: T2, human ROR-1 endogenously expressed on …; assay: flow cytometry on MDA-MB-468 cells, titrated antibody detected with a labeled secondary antibody, % Top MFI (cellular binning with Dy650-UC961)

Kd (Hu/Cy/Rh ROR1 - His): 8.4 nM | koff (Hu/Cy/Rh ROR1 - His): 0.00314 s⁻¹ | kon (Hu/Cy/Rh ROR1 - His): 392000 M⁻¹ s⁻¹ | Cellular Internalization, JeKo-1 (%) [1]: 70% | Cellular Internalization, MDA-MB-468(%) [1]: 80% | EC50 (read off the curve) [2]: ~0.8 nM
B1: ATX-P-890 (antibody, human IgG1, kappa, V domains shown)
VH: QVQLVQSGAEVKKPGASVKVSCKASGYTFTGYYMHWVRQAPGQGLEWMGWINPNSGGTNYAQKFQGRVTMTRDTSISTAYMELSRLRSDDTAVYYCVRDQVQLERFDSWGQGTLVTVSS
VL: [gap - about 100 residues]
notes: human IgG1 heavy chain and kappa light chain
